Source: US12053529B2, “Amino-reactive positively charged ATRP initiators that maintain their positive charge during synthesis of biomacro-initiators” (Carnegie Mellon University, priority 2018, dated 2024)

Molecular target: N-succinyl-Ala-Ala-Pro-Phe-p-nitroanilide (Artificial Sequence)

“α-chymotrypsin (CT) from bovine pancreas (type II) (from UniProt P00766) (enzyme)” showed a kcat/KM (Michaelis-Menten kinetics of substrate hydrolysis, pH 8, 37° C.) of 0.25 µM^-1s^-1.
